Among the data in publication PMC9784403 (Pharmaceuticals, 2022) are σ2R affinity values, retold here.

The assay addresses T1, σ2R/TMEM97 (Rattus norvegicus, UniProt Q5U3Y7).
T1 sequence (Q5U3Y7 1-176): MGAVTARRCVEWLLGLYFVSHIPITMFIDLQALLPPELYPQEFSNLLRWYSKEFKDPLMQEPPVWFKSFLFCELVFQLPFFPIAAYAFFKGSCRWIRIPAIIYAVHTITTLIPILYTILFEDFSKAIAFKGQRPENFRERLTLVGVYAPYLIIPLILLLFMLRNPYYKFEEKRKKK
The experiment in a line: Competitive receptor binding assay with [3H]DTG (σ1R masked with (+)-pentazocine). The settings on record: full competition assay using both radioligands, [3H]DTG and [125I]RHM-4.

For the compound `Cc1ccc2c(c1)C1CN(C)CCC1N2C(=O)CSc1nnnn1-c1ccc(Cl)cc1` (stereo not shown) [AG-205, reference compound], the σ2R affinity was ~1 µM.
